Biological target: human PDE10A2 (Homo sapiens (Human), UniProt Q9Y233)
Experiment: PDE10 fluorescence polarization (IMAP FP) inhibition assay
Type: biochemical
Conditions: read-out: PDE10a Ki
Protocol: The activity of the compounds in accordance with the present invention as PDE10 inhibitors may be readily determined without undue experimentation using a fluorescence polarization (FP) methodology that is well known in the art (Huang, W., et al., J. Biomol Screen, 2002, 7: 215).
In a typical experiment the PDE10 inhibitory activity of the compounds of the present invention was determined in accordance with the following experimental method. PDE10A2 was amplified from human fetal brain cDNA (Clontech, Mountain View, Calif.) using a forward primer corresponding to nucleotides 56-77 of human PDE10A2 (Accession No. AF127480, Genbank Identifier 4894716), containing a Kozak consensus sequence, and a reverse primer corresponding to nucleotides 2406-2413 of human PDE10A2 (Accession No. AF127480, Genbank Identifier 4894716). Amplification with Easy-A polymerase (Stratagene, La Jolla, Calif.) was 95° C. for 2 minutes followed by thirty three cycles of 95° C. for 40 seconds, 55° C. for 30 seconds, and 72° C. for 2 minutes 48 seconds. Final extension was 72° C. for 7 minutes. […] The fluorescence polarization assay for cyclic nucleotide phosphodiesterases was performed using an IMAP® FP kit supplied by Molecular Devices, Sunnyvale, Calif. […] 0% of inhibition is determined by using DMSO (1% final concentrations). […]

Protein sequences, listed by entry. Tags and fused reporters are not part of them. Residues count along the entry.
UniProt Q9Y233, 267-1055: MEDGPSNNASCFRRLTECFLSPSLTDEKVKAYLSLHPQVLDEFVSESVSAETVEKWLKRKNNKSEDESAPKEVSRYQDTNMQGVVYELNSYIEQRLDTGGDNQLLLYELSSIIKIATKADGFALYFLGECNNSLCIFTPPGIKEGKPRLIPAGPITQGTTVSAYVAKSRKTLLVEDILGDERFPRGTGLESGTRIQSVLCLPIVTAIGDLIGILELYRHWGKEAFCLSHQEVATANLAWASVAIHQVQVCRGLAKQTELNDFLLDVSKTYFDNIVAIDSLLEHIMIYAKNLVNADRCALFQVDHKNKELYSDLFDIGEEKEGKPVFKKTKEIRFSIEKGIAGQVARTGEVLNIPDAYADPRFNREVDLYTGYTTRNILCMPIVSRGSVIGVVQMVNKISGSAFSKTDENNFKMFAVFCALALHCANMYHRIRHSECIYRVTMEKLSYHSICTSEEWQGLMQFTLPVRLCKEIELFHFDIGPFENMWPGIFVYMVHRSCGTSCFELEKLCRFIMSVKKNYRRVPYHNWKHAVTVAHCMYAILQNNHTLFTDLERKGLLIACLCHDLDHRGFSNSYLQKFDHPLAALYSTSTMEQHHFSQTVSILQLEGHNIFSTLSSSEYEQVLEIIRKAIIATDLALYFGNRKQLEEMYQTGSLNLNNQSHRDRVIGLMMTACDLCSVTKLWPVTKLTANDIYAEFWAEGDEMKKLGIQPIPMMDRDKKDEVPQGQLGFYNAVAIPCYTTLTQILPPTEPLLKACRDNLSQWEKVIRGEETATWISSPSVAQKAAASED

Ki: 1.3 nM
Structure (SMILES): CCC(O)c1nc(C)nn1-c1cc(C2C[C@H]2c2nc3ccccc3n2C)nc(C)n1 (stereo partly drawn) [Example 19, 1-(3-methyl-1-(2-methyl-6-((1R,2R)-2-(1-methyl-1H-benzo[d]imidazol-2-yl)cyclopropyl)pyrimidin-4-yl)-1H-1,2,4-triazol-5-yl)propan-1-ol]

Source: patent publication US9428492B2, “Secondary alcohol substituted triazoles as PDE10 inhibitors” (Merck Sharp & Dohme Corp., priority 2012, dated 2016)
